How the values were obtained:
[1] = test system: Graves' disease-induced mice; assay: Serum thyroxine (T4) in Graves' disease-induced (Ad-TSHR) mice; assay type: in vivo, BALB/c mice; conditions: 10 mg/kg daily for three weeks, abdominal cavity, FIG. 8
Experimental: (§1) To create a mouse model with induced Graves' disease, 6-week-old female BALB/c mice were used. The thyroid stimulating hormone receptor (TSHR) expressing adenovirus, Ad-TSHR, was purchased from VectorBuilder (Chicago, USA, www.vectorbuilder.com). A diluted solution of Ad-TSHR (3.02×10^12 VP/ml) was prepared, and 40 μl (10^10 VP/40 μl) of the virus was injected into the thigh muscle of the mice. The virus was injected three times at three-week intervals, totaling nine weeks of injections to induce overexpression of TSHR and thereby cause Graves' disease.
(§2) In the Graves' disease-induced mouse model established in <3-1>, the therapeutic effectiveness of the imidazopyridine scaffold-bearing compounds screened in the present disclosure was evaluated. To this end, a test group of the Graves' disease-induced mice was treated with the candidate drug NE2-6, identified through screening, at a daily dose of 10 mg/kg for three weeks. PTU was used as a positive control for comparison.
(§3) After extracting the thyroid glands from each mouse, the sizes of the thyroids were visually compared, and the concentration of thyroxine (T4) in the blood was analyzed.
After administering drugs for three weeks to mice in which Graves' disease was induced by the Ad-TSHR virus over nine weeks, the serum was isolated to measure the concentration of thyroxine (T4).

[2] = test system: Graves' disease-induced mice; assay: Thyroid size in Graves' disease-induced (Ad-TSHR) mice; assay type: in vivo, BALB/c mice; conditions: 10 mg/kg daily for three weeks, abdominal cavity, vs Ad-TSHR group, FIG. 7
Experimental: as §1, §2, §3

SMILES: CCCc1cc(=O)[nH]c(=S)[nH]1 [Propylthiouracil (PTU), Propylthiouracil, reference compound]
- serum thyroxine (T4) concentration [1]: significant reduction
- thyroid size (visually compared) [2]: effectively reduced thyroid sizes

Source: patent US20240408072A1, “COMPOSITION FOR PREVENTING OR TREATING GRAVES' DISEASE COMPRISING COMPOUND CONTAINING AN IMIDAZOPYRIDINE STRUCTURE AS ACTIVE INGREDIENT” (ESGELBIO INC., priority 2021, published 2024)
